The values that follow come from ChEMBL document CHEMBL1147692, “Orally active thrombin inhibitors. Part 1: optimization of the P1-moiety” (Bioorg Med Chem Lett, 2006).

The test deals with Prothrombin (Homo sapiens, UniProt P00734). Put plainly: Inhibition of thrombin.

`N=C(N)c1csc(CNC(=O)[C@@H]2C=CCN2C(=O)[C@@H](CC2CCCCC2)NCC(=O)O)n1`: the IC50 was 1.39 nM.
